Earlier results on one compound are cited in patent publication US11944600B2, “Use of cannabinoids in the treatment of a neurodegenerative disease or disorder” (priority 2017, dated 2024).

For this data set, the system named is ALS patients. The conditions noted are these: cited from earlier work.

With `Nc1nc2ccc(OC(F)(F)F)cc2s1` [riluzole], the increase in survival result is “approximately two to three”.
